The record followed here is US7576105B2, “Benzyl substituted (piperidin-4-yl)aminobenzamido derivatives” (priority 2002, dated 2009).

Sequences of proteins named here, by UniProt entry; tags and fusion partners are left off. A change or cut given only in a name is not applied to a line headed by its entry.
UniProt P33533, whole entry, looked up: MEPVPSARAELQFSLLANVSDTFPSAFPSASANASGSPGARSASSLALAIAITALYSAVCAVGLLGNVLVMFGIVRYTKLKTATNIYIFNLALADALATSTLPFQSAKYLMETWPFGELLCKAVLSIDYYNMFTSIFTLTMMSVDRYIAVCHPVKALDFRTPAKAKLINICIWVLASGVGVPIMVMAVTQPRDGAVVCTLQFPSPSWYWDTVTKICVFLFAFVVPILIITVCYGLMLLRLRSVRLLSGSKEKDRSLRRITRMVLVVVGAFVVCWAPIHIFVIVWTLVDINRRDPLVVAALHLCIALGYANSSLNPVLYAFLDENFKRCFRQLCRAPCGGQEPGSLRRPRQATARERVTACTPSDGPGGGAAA
UniProt P33535: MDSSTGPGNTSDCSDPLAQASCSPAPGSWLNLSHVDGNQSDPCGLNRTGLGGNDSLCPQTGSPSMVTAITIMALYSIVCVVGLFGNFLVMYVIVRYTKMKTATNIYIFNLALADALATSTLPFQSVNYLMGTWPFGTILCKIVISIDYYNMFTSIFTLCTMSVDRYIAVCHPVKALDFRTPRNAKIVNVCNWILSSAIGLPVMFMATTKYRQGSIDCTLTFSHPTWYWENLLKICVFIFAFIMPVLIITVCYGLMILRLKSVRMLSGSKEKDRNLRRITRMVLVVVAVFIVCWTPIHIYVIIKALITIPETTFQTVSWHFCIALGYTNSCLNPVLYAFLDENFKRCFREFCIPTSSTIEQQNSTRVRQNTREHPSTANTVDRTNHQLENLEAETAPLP

The target in one experiment is δ-opioid receptor (Rattus norvegicus, UniProt P33533). The experiment is described as follows: Rat brain δ-opioid receptor binding assay.
Another experiment has as its target μ-opioid receptor (Rattus norvegicus, UniProt P33535). The experiment is described as follows: Rat brain μ-opioid receptor binding assay.
Experiment [1] deals with acetylcholine bromide-induced abdominal constriction. Put plainly: Mouse acetylcholine bromide-induced abdominal constriction assay (MAIT). Conditions: 150 μmole/Kg p.o., 30 min before 5.5 mg/kg i.p. acetylcholine bromide. In kind it is in vivo.

“N,N-diethyl-3-[3-hydroxyphenyl(1-propylpiperidin-4-yl)aminomethyl]benzamide”: the inhibition constant (Ki) worked out at 356 nM on δ-opioid receptor and 155 nM at μ-opioid receptor.
As for “N,N-Diethyl-3-[phenyl(1-propylpiperidin-4-yl)aminomethyl]benzamide”, on δ-opioid receptor, the inhibition constant Ki was determined as 1050 nM.
“N,N-diethyl-4-[3-trifluoromethylphenyl(1-propylpiperidin-4-yl)amino]benzamide”: the inhibitory constant (Ki) is 2190 nM on δ-opioid receptor and at least 10000 nM on μ-opioid receptor.
In the case of `CCCN1CCC(NC(c2ccc(C(=O)N(CC)CC)cc2)c2cccc(OC)c2)CC1` (stereo not shown), the “δ-Opioid Receptor Binding % Inhibition @ 1 μM” value at δ-opioid receptor (1 μM test compound, rat forebrain particulate preparation, [3H]DPDPE, 25° C.) is 5%.
Turning to “N,N-diethyl-3-[3-fluorophenyl(1-propylpiperidin-4-yl)aminomethyl]benzamide”, the Ki at δ-opioid receptor came out at 1030 nM.
Consider “N,N-diethyl-4-[3-fluorobenzyl(1-propylpiperidin-4-yl)amino]benzamide”, for which the inhibitory constant (Ki) came to 71.8 nM at δ-opioid receptor and 1380 nM on μ-opioid receptor. In addition, the “MAIT % Inhibition @150 μmol/kg” value in experiment [1] is given as 100%.
“N,N-diethyl-4-[4-fluoromethylphenyl(1-propylpiperidin-4-yl)amino]benzamide” displayed an inhibition constant (Ki) on δ-opioid receptor of 110 nM.
For the molecule “N,N-Diethyl-3-[3-methoxyphenyl(1-propylpiperidin-4-yl)aminomethyl]benzamide”, the Ki on δ-opioid receptor is 3990 nM; on μ-opioid receptor it was at least 10000 nM.

In general, Ki refers to the equilibrium dissociation constant of an inhibitor or competing ligand from its target. A low value points to a stronger hold on the target.
